# Patent publication EP0451834B1, “Alpha-mannosidase and fucosidase inhibitors” (MERRELL PHARMACEUTICALS INC., priority 1990, dated 1991)
# Target: T1, α-Mannosidase (Jack bean) (Canavalia ensiformis, UniProt C0HJB3)
# T1 sequence (C0HJB3 1-981): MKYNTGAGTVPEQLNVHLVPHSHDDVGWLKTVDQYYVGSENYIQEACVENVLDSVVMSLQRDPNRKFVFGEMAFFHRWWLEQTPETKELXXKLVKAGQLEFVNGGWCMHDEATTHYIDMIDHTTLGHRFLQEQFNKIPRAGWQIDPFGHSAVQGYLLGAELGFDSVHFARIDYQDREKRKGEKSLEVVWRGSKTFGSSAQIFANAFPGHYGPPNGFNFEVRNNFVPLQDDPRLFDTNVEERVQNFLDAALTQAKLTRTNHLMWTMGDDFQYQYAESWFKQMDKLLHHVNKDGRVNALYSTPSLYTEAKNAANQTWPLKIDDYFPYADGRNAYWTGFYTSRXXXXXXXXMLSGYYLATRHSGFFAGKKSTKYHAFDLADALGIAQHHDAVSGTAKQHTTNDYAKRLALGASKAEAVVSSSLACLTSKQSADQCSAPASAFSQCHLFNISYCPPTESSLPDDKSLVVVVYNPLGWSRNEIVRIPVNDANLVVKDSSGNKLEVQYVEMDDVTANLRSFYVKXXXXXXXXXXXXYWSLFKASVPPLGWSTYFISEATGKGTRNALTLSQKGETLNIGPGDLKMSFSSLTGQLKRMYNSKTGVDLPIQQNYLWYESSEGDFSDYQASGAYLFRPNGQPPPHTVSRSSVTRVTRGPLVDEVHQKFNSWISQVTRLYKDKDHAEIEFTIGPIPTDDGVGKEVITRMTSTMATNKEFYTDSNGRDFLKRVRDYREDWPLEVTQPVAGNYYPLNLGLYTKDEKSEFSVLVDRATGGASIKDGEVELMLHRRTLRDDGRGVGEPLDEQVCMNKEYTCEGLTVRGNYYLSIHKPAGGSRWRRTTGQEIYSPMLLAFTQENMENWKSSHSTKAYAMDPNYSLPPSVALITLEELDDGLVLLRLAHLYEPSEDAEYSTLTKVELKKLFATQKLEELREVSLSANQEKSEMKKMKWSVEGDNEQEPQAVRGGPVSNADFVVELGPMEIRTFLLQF
# Experiment: Mannosidase screening assay (p-nitrophenyl-α-mannopyranoside substrate, absorbance at 405 nm)
# Assay type: biochemical
# Description: The compounds of this invention are alpha-mannosidase and alpha-fucosidase inhibitors. This can be demostrated by the ability of the compound to inhibit Jack bean mannosidase or mannosidase II as follows: Mannosidase Screening Assay (Kang, et al., Plant Physiol. 71:551-554 (1983)). Activities of mannosidase are first screened with Jack bean enzyme using p-nitrophenyl substrate as follows using a 96-well microplate. Total Rxn mix 200µl. • 1. Add compounds to be tested and dilute to 100µl with H2O. • 2. Add 25µl of 1M sodium acetate buffer pH 4.5 containing 10mM ZnCl2. • 3. Add 25µl of enzyme or approximately 0.05 µg protein. • 4. Mix and incubate at R.T. for 30 min. • 5. Add 50µl of 10 mM p-nitrophenyl-α-mannopyranoside in H2O to start the Rxn and incubate 37° for 30 min. Stop reaction by addition 100µl of 0.2M (2%) sodium carbonate solution (pH∼12). Read absorbance at 405 nm. Mannosidase II Assay (Elbein, et al., Methods Enz. Vol. 179, P.468). The compounds which show activity against Jack bean are checked against purified α-mannosidase II as follows with 100 µl Total Rxn Volume. • 1. Add compounds to be tested and dilute to 60µl with H20. • 2. Add 10µl of 0.5 M MES buffer pH 6.0. • 3. Add 10µl of 1% Triton X-100. • 4. […] Stop reaction with 20µl of acetic acid, add 1 ml of Con A Buffer B, and determine the radioactivity released by Con A column chromatography.
compound,measurement,value
O[C@H]1[C@H]2[C@H](O)CCCN2C[C@H]1O [Swainsonine],IC50,86.6 nM
